Measured values: patent US20010021514A1, “Luminescent metal-ligand complexes” (priority 1999, published 2001)

Key:
[1] = Intrinsic polarization from excitation polarization spectra in vitrified solution; type: physicochemical; conditions: excitation polarization spectra in vitrified solution (glycerol: water=6:4; −55° C.)
Excerpt: Aspects of the invention include the use of selected long-lifetime metal-ligand complexes in luminescence polarization assays. Here, as elsewhere in the application, polarization assays encompass any assays involving detection of polarized light, including steady-steady and time-resolved assays, and computation of polarization and anisotropy functions, among others. […] Here, the invention was used without limitation to monitor interactions between human serum albumin (HSA) and goat-anti-HSA (IgG) antibodies. The HSA was labeled with a ruthenium-ligand complex polarization probe, Sunnyvale Red™ (SVR™), as described elsewhere in this application. […] These values were determined by measuring the excitation polarization spectra in vitrified solution (glycerol: water=6:4; −55° C.).

[2] = test system: goat-anti-HSA (IgG) antibodies; assay: Steady-state luminescence polarization titration of labeled HSA with anti-HSA antibody (Analyst platform); type: binding
Excerpt: Aspects of the invention include the use of selected long-lifetime metal-ligand complexes in luminescence polarization assays. Here, as elsewhere in the application, polarization assays encompass any assays involving detection of polarized light, including steady-steady and time-resolved assays, and computation of polarization and anisotropy functions, among others. […] Here, the invention was used without limitation to monitor interactions between human serum albumin (HSA) and goat-anti-HSA (IgG) antibodies. The HSA was labeled with a ruthenium-ligand complex polarization probe, Sunnyvale Red™ (SVR™), as described elsewhere in this application. SVR is a preferred polarization probe because it combines long-wavelength absorption and emission and a 200-nm Stokes' shift with a high intrinsic polarity and a long luminescence lifetime (τ=360 ns). The excitation maximum of this dye is 487 nm, so that SVR is ideally suited for excitation with an argon ion laser. The intrinsic polarization P0 is 0.36 for free SVR, and 0.38 for HSA-labeled SVR (corresponding to fundamental anisotropies of 0.27 and 0.29, respectively). These values were determined by measuring the excitation polarization spectra in vitrified solution (glycerol: water=6:4; −55° C.).
Here, changes in the steady-state polarization of SVR^−IHSA in the presence of various amounts of polyclonal antibody were measured using an Analyst™ light detection platform (LJL BioSystems, Inc.). Specifically, 30 nM of SVR-HSA were premixed with increasing amounts of anti-HSA to yield molar ratios of antigen: antibody of 1:0, 1:0.25, 1:0.5, 1:0.75, 1:1, 1:2, and 1:3. For background correction, an analogous set of samples was prepared using unlabeled HSA. […] Polarizations were measured using the Analyst™ light detection platform. The polarization in mP was calculated for each sample using the formula: [formula]
(§1) Here, G is a “G factor” that corrects for various instrument artifacts. The G factor is calculated from a known polarization of a standard fluorophore (e.g., fluorescein).

[3] = test system: nonspecific antibody (IgG); assay: Steady-state luminescence polarization titration of labeled HSA with nonspecific antibody (control); type: binding, human; conditions: control sample using nonspecific antibody
Protocol: Here, changes in the steady-state polarization of SVR^−IHSA in the presence of various amounts of polyclonal antibody were measured using an Analyst™ light detection platform (LJL BioSystems, Inc.). Specifically, 30 nM of SVR-HSA were premixed with increasing amounts of anti-HSA to yield molar ratios of antigen: antibody of 1:0, 1:0.25, 1:0.5, 1:0.75, 1:1, 1:2, and 1:3. For background correction, an analogous set of samples was prepared using unlabeled HSA. For a nonspecific control, an analogous set of samples was prepared using SVR-HSA and nonspecific anti-HSA antibodies. The various mixtures were incubated for 30 minutes at room temperature. After incubation, the mixtures were transferred in triplicates to a 96-well microplate (Coming Costar), along with PBS (10 mM) and a 10 nM fluorescein reference. Polarizations were measured using the Analyst™ light detection platform. The polarization in mP was calculated for each sample using the formula: [formula]
as §1
HSA and nonspecific human IgG were obtained from Sigma Chemical Company. Polyclonal IgG specific for HSA (goat anti-HSA) was obtained from O.E.M. Concepts. All other starting reagents were obtained from Aldrich Chemical Company. […]

SVR-labeled HSA: human serum albumin labeled with the ruthenium-ligand complex polarization probe Sunnyvale Red
intrinsic polarization P0 [1]: 0.38 | steady-state polarization of the saturated immune complex ([2]; 30 nM SVR-HSA with anti-HSA, antigen: antibody up to 1:3): about 165 mP | steady-state polarization in the absence of antibody ([2]; 30 nM SVR-HSA, 30 minutes at room temperature): about 50 mP | increase of polarization on titration with specific antibody ([2]; 30 nM SVR-HSA, anti-HSA titration): more than 100 microplate | change of polarization with nonspecific antibody [3]: does not increase significantly
